The values that follow are results of earlier work, collected in publication PMC10819888, “Benzimidazole-Based Derivatives as Apoptotic Antiproliferative Agents: Design, Synthesis, Docking, and Mechanistic Studies” (Molecules, 2024).

By UniProt entry, the sequences of proteins in these tests, tags left out. Residues count along the entry.
UniProt P00533, 669-1210: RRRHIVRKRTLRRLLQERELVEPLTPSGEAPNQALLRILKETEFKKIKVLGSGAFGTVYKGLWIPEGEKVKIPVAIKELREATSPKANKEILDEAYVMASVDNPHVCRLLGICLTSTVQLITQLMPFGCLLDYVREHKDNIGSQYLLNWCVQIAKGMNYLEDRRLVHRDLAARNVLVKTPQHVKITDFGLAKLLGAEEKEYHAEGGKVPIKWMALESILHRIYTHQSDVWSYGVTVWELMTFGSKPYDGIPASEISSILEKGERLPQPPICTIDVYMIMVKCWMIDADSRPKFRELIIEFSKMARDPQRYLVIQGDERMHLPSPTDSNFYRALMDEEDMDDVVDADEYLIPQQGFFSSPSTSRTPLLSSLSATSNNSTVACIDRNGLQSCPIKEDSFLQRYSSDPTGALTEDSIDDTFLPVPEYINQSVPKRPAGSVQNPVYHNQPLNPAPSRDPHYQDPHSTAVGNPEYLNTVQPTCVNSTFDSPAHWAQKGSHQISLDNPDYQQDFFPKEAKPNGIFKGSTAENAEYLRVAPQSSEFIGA

This series deals with EGFR (Homo sapiens, UniProt P00533). The arrangement: CD, amino acids 645–1186); His6 (N); made in house; host or cells: Sf-9 insect cells (baculovirus; pBlueBacHis2B / pFASTBacHTc; method as in PMID 31954624, PMID 29285266, PMID 27433829, doi:10.1200/JCO.2018.36.15_suppl.9094, PMID 26825170. As to conditions: Figure 1; read-out: IC50 EGFR inhibitor; cited from earlier work.

Broadly, the IC50 is the concentration at which inhibition is half-maximal. For the compound `Cc1cc(C(=O)Nc2nc3cccc(Cl)c3n2[C@@H]2CCCCN(C(=O)/C=C/CN(C)C)C2)ccn1` [Nazartinib], the concentration for half-maximal inhibition (IC50) was 31 nM.
